Experimental data: patent US10336760B2, “Inhibitors of cyclin-dependent kinase 7 (CDK7)” (SYROS PHARMACEUTICALS, INC., priority 2014, dated 2019)

Chains of the proteins cited; added tags and fusions are not shown. Lines headed by an entry give the natural chain unless they say otherwise; changes in a name come on top.
UniProt P50613: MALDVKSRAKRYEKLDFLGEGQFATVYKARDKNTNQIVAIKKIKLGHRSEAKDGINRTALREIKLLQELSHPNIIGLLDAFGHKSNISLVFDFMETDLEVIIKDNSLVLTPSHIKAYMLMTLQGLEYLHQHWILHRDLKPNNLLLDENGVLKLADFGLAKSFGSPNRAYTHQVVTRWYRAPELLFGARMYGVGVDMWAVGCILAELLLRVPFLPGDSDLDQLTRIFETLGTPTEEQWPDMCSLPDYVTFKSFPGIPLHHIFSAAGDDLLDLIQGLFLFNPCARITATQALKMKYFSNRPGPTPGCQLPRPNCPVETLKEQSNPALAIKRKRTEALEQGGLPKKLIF

Molecular target: T1, CDK7 (Homo sapiens, UniProt P50613)
T1 construct: purchased Life Technologies (Grand Island, N.Y.), Adapta kinase assay service
Assay: CDK7 kinase activity, Adapta kinase assay (Life Technologies)
Assay type: biochemical
Conditions: concentrations from 10 μM down to 0.514 nM, 3-fold serial dilutions, calculated IC50, read-out: CDK7 Inhibition (IC50)
Description: Compounds of the invention were assayed for CDK7 activity at Life Technologies (Grand Island, N.Y.) using their commercially available Adapta® kinase assay services. […] Details of this assay, including substrates used, are available on the Life Technologies web site (http://www.lifetechnologies.com/us/en/home/life-science/drug-discovery/target-and-lead-identification-and-validation/kinasebiology/kinase-activity-assays.html).

C=CC(=O)N(CCCCCCNc1cc(NCc2ccccc2)n2ncc(C(C)C)c2n1)C(=O)C=C [Compound 100, N-acryloyl-N-(6-((7-(benzylamino)-3-isopropylpyrazolo[1,5-a]pyrimidin-5-yl)amino)hexyl)acrylamide]
IC50: > 1 µM
